According to PubChem BioAssay AID651719 (The Scripps Research Institute Molecular Screening Center, 2012):
Only a part is listed here, and it is no random draw. Some of these compounds have results that are not shown, active ones among them. The source made the active and inactive calls.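 The calls were made as follows: active = inhibition above the screen-wide average plus 3 SD (cut at about 13% in these data); inactive = the rest.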

By UniProt entry, the sequences of proteins in these tests, tags left out. Residues count along the entry.
UniProt O60755, 1-299 limits assumed: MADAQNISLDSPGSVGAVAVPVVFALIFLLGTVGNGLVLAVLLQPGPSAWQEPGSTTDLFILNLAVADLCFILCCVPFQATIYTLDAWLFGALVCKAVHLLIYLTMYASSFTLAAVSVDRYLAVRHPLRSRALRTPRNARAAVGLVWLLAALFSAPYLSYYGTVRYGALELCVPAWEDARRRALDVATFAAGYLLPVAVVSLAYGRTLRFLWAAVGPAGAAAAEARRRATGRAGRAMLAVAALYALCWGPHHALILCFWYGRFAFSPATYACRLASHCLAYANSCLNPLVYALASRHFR

The molecules below were run against Galanin receptor type 3 (Homo sapiens) (UniProt O60755) (assay: blockers of human galanin receptor 3 – cell-based, fluorescence readout, primary screen (AID 651719;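 also: forskolin and galanin both at EC90 stimulate the cells; cAMP rise reported by CNG channel membrane potential dye signal; 0% = forskolin plus galanin with DMSO and 100% = forskolin alone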)). Details: HEK293 GalR3-CNG cAMP membrane potential fluorescence; at 3 µM; hits give high values; galR3 body fused to GalR1 C-terminus.
For `CC(C)N1C(=O)CC2(CCN(CCOC(=O)C(O)(c3ccccc3)c3ccccc3)CC2)C1=O`, the inhibition was inactive: -2.33%. With `CCN(CC)CC(C)C(C)OC(=O)C(O)(c1ccccc1)c1ccccc1` (stereo unspecified) the inhibition was inactive: 0.72%. With `COc1cc(SC)ccc1C(=O)NCC1(N(C)C)CCCCC1` the inhibition was inactive: -8.15%. In the case of `Cc1ccc(C(=O)NCC2(N3CCCCC3)CCCCC2)cc1`, the inhibition is reported as inactive: -4.69%. `O=C(NCC1(N2CCCCC2)CCCCC1)c1cc([N+](=O)[O-])ccc1Cl` was tested, and the inhibition was inactive: 3.78%. With `CN1[C@@H]2CC[C@H]1CC(OC(=O)C(O)(c1ccccc1)c1ccccc1)C2` (stereo partly specified) the inhibition was inactive: -8.35%. `C=CCN1CCN(CCOC(=O)C(O)(c2ccccc2)c2ccccc2)CC1` was tested, and the inhibition was inactive: -7.07%. In the case of `O=C(NCC1(N2CCCCC2)CCCCC1)c1cc(F)c(F)cc1Cl`, the inhibition is reported as inactive: -6.35%. In the case of `Cc1cc(C(=O)NCC2(N3CCCCC3)CCCCC2)ccc1[N+](=O)[O-]`, the inhibition is reported as inactive: -8.07%. For `CCN1CCCC(OC(=O)C2(O)c3ccccc3C=Cc3ccccc32)C1` (stereo unspecified), the inhibition was inactive: -1.15%. In the case of `O=C(NCC1(N2CCCCC2)CCCCC1)c1cccc(Br)c1`, the inhibition is reported as inactive: -5.96%. `COc1ccc(C(=O)NCC2(N(C)C)CCCCC2)cc1` was tested, and the inhibition was inactive: 1.56%. In the case of `Cc1ccccc1C(=O)NCC1(N2CCCCC2)CCCCC1`, the inhibition is reported as inactive: -6.41%. `CN(C)C1CCCC1OC(=O)C(O)(c1ccccc1)c1ccccc1` (stereo unspecified) was tested, and the inhibition was inactive: -2.72%. `CN(C)c1ccc(C(=O)NCC2(N(C)C)CCCCC2)cc1` was tested, and the inhibition was inactive: -3.57%. `COc1cccc(C(=O)NCC2(N3CCCCC3)CCCCC2)c1` was tested, and the inhibition was inactive: -2.36%. `COc1ccc(Cl)cc1C(=O)NCC1(N(C)C)CCCCC1` was tested, and the inhibition was inactive: -11.4%. `O=C(NCC1(N2CCCCC2)CCCCC1)c1cccc(Cl)c1` was tested, and the inhibition was inactive: 0.35%. `CN(C)C1(CNC(=O)c2ccc(Br)cc2)CCCCC1` was tested, and the inhibition was inactive: 3.22%. In the case of `COc1cc(C(=O)NCC2(N(C)C)CCCCC2)c([N+](=O)[O-])cc1OC`, the inhibition is reported as inactive: -8.66%. For `COc1ccc(Br)c(C(=O)NCC2(N3CCCCC3)CCCCC2)c1`, the inhibition was inactive: -2.02%. In the case of `C=C(C)C#CC(O)(C(=O)OC1CCN(C)CC1)c1ccccc1` (stereo unspecified), the inhibition is reported as inactive: 2.03%. `CN(C)c1cccc(C(=O)NCC2(N(C)C)CCCCC2)c1` was tested, and the inhibition was inactive: 0.32%. With `CC(C)Oc1ccc(C(=O)NCC2(N(C)C)CCCCC2)cc1` the inhibition was inactive: -10.7%. In the case of `O=C(OCCN1CCCC1)C(O)(c1ccccc1)c1ccccc1`, the inhibition is reported as inactive: -5.66%. In the case of `O=C(OC1CN2CCC1CC2)C(CO)(c1ccccc1)c1ccccc1` (stereo unspecified), the inhibition is reported as inactive: -4.04%.
